Read-outs that look alike come from different tables or passages of the source.
Columns and labels:
[1] = cited from earlier work
[2] = test system: Patient B4 cells (HER2 overexpressing breast cancer); assay: CELx Pathway Shutdown test, impedance biosensor CReMS, EGF stimulation; assay type: cell-based, human
Procedure: (§1) A CELx Pathway Shutdown test was performed using cells from two HER2 overexpressing breast cancer patients (Patient B1 and B4), two drugs (Lapatinib and Trastuzumab) that are indicated for HER2 positive breast cancers, and human epidermal growth factor (EGF). The physiologic change of the B1 and B4 cells during the test was measured with an impedance biosensor CReMS and the output from the CReMS is recorded in FIGS. 1A and 1B. The comparison of the CELx test results and the third party clinical reference is recorded in FIG. 1C. This example illustrates how the CELx test is able to predict the responsiveness that a patient will have to different targeted pathway drugs by using a CReMS to measure the physiological change in a patient's cells continuously over a period of several hours. This example also illustrates how the presence of a genetic biomarker, in this case an overexpressing HER2 gene, is not a sufficient condition to predict efficacy of the drug.
(§2) CReM and microplate: A 4″×6″, 96-well impedance microplate was placed into a Roche Applied Science (Indianapolis, Ind.) xCELLigence SP impedance biosensor designed to maintain constant voltage while measuring simultaneously the impedance of every well. The change in impedance for a particular well is proportional to the number of cells and type of attachment the cells have with the impedance microplate. Changes in impedance indicate a response to perturbation of these small cell populations.
(§3) Cells: Cells from Patient B1 and B4 were utilized. The cells were received at −80° C., thawed and cultured according to standard human epithelial cell handling procedure, typically in T75 culture flasks containing buffered media with serum at 37° C., 5% CO2. Prior to addition to the impedance microplate, the cells were removed from their growth container with versene, counted, and re-suspended in media without serum or other growth factors. […]

[3] = test system: Patient B1 cells (HER2 overexpressing breast cancer); assay: as above; assay type: cell-based, human
Procedure: as §1, §2, §3

Substance: trastuzumab: monoclonal antibody that interferes with the HER2/neu receptor
- patient responsiveness recorded by clinical reference standard ([1]; Patient B1): unresponsive
- patient responsiveness recorded by clinical reference standard ([1]; Patient B4): responsive
- CELx test prediction of patient response [2]: would respond
- CELx test prediction of patient response ([3]; Patient B1): will not respond
- change (decrease) of cell index of test cells after drug ([3]; Patient B1 cells, pathway stimulated with receptor ligand (EGF), vs stimulated cells without drug): less than 5%

From patent US11073509B2, “Assays and methods for determining the responsiveness of an individual subject to a therapeutic agent” (Celcuity Inc., priority 2013, dated 2021)
